# Data reported in patent US20070092527A1, “Proton-sensing g-protein coupled receptors and dna sequences thereof” (NOVARTIS AG, priority 2003, published 2007).
# Test system: primary human osteoblast precursors isolated from trabecular bone
# Assay: IP formation in primary human osteoblast precursors
# Details: primary cells; mean+/-sem, N=3
structure (smiles),measurement,value
[H+] [protons],Half-maximal activation of IP formation,7.41+/−0.02 pH
